Test results as given in patent US7851599B2, “Combination of an anti-ED—B fibronectin domain antibody—IL-2 fusion protein and gemcitabine” (Philogen S.p.A., priority 2006, dated 2010).

Columns and labels:
Type in all cases: in vivo, nude mice
[1] = test system: human pancreatic cancer cell line DanG; test: Orthotopic DanG pancreatic cancer xenograft, tumor volume
serum lipase = test: Serum lipase as surrogate marker of pancreatitis; conditions: DanG-bearing mice; end of treatment
Experimental: (§1) Mouse blood samples were obtained by retroorbital bleeding or decapitation. Samples were centrifuged and supernatants were stored at −20° C. Serum CA 19-9 levels were measured by a fully automated chemiluminescence immunoassay on an ADVIA Centaur (Bayer, Leverkusen, Germany) and eipase levels were determined using a kinetic colorimetric assay on an ADVIA 2400 (Bayer, Leverkusen, Germany).
(§2) To determine the efficacy of L19IL2 treatment in a pancreatic cancer situation, athymic nude mice were orthotopically injected with the human pancreatic cancer cell line DanG. […] At the end of therapy, all mice were sacrificed and the tumor volume was calculated. […] Based on this observation, we evaluated the time-response relationship of L19IL2 induced tumor growth delay by repeatedly collecting blood samples of vehicle and L19IL2 treated mice. […]
FIG. 2 Therapeutic effects of L19IL2 against orthotopic pancreatic cancer in nude mice. […] All mice were sacrificed on day 21 and tumor volume was calculated (A, C). […] Values are expressed as the percentage of tumor volume from vehicle treated controls. *: p≦0.004 (versus control and L1 g). […] Serum concentrations of CA 19-9 were determined by chemiluminescence immunoassay and CA 19-9 level versus tumor volume was plotted for each individual animal. […] At the end of treatment, blood samples were collected and serum lipase was analyzed by a kinetic calorimetric assay. […]

[2] = test system: human pancreatic cancer cell line MiaPaca; test: Orthotopic MiaPaca pancreatic cancer xenograft, tumor volume
Experimental: (§3) Orthotopic transplantation was carried out as described.
To investigate whether L19IL2 induced reduction of tumor growth is cell-type specific, mice were orthotopically injected with the human pancreatic cancer cell line MiaPaca. After establishment of solid tumors, mice were randomized to receive 0.9% saline or 1.43MIU/kg BW or 4.29 MIU/kg BW IL-2 equivalents of either L19IL2 or IL-2 for 10 days.
FIG. 2 Therapeutic effects of L19IL2 against orthotopic pancreatic cancer in nude mice. A-C Nude mice were orthotopically injected with the human pancreatic cancer cell line DanG. […] All mice were sacrificed on day 21 and tumor volume was calculated (A, C). […] Values are expressed as the percentage of tumor volume from vehicle treated controls. *: p≦0.004 (versus control and L1 g). […] Serum concentrations of CA 19-9 were determined by chemiluminescence immunoassay and CA 19-9 level versus tumor volume was plotted for each individual animal. […] At the end of treatment, blood samples were collected and serum lipase was analyzed by a kinetic calorimetric assay. […] All mice were killed at day 54 and the tumor volume was calculated. Data shown are expressed as the mean±SEM of each treatment group. *: p≦0.0007 (versus control); +, p=0.0003 (L19IL2 1.43 MIU/kg BW versus equimolar amounts of IL-2); ‡: p=0.0513 (L19IL2 4.29 MIU/kg BW versus equimolar amounts of IL-2).

serum CA 19-9 = test: Serum CA 19-9 levels in mice bearing orthotopic DanG tumors; conditions: after treatment (data not shown)
Experimental: as §3, §1, §2
FIG. 2 Therapeutic effects of L19IL2 against orthotopic pancreatic cancer in nude mice. […] All mice were sacrificed on day 21 and tumor volume was calculated (A, C). […] Values are expressed as the percentage of tumor volume from vehicle treated controls. *: p≦0.004 (versus control and L1 g). […] Serum concentrations of CA 19-9 were determined by chemiluminescence immunoassay and CA 19-9 level versus tumor volume was plotted for each individual animal. […]

“IL-2: untargeted Interleukin 2, anti-tumor cytokine used as comparator” was tested. Which “effect on tumor growth” value ([1]; higher dose 4.29 MIU/kg BW for 10 days) did it give?
Its value is “only a minor effect”.

What about the “effect on tumor growth” value ([1]; lower dose 1.43 MIU/kg BW for 10 days) of the same substance?
The value was “no effect on tumor growth”.

What about the “serum lipase concentrations compared to controls” value (serum lipase) of the same substance?
The value was “neither L19IL2 nor untargeted IL-2 interfered”.

And the “tumor volume, % of control” value ([2]; high dosage 4.29 MIU/kg BW IL-2 equivalents, days 40-44, 47-51, killed day 54)?
Its value is 47.3%.

And the “therapeutic effect on tumor load” value ([2]; low dosage 1.43 MIU/kg BW for 10 days)?
Its value is “not therapeutic”.

And the “serum CA 19-9 levels in tumor bearing mice” value (serum CA 19-9)?
Its value is “did not impinge on serum tumor markers”.
